Earlier results on one substance are cited in patent publication US20170165293A1, “METHOD AND APPARATUS FOR SCAVENGING PLASMA FREE HEMOGLOBIN” (GENO LLC, priority 2015, published 2017).

This is a selection: effects in other tests are not listed, and their absence says nothing.

This series has as its system free water-induced intravascular hemolysis. The following applies: free water-induced hemolysis compared with D5W and D5W plus NO; cited from earlier work.

Consider sodium nitroprusside, for which the “percent change in CI in response to increasing doses of sodium nitroprusside” value was “blunted” and the “percent change in SVRI in response to increasing doses of sodium nitroprusside” value is recorded as “blunted”.
